Laboratory results as given in publication PMC7611940, “A Conformation Selective Mode of Inhibiting SRC Improves Drug Efficacy and Tolerability” (Cancer Research, 2021).

By UniProt entry, the sequences of proteins in these tests, tags left out. Where a name states a change or a piece, a line headed by the entry shows the natural chain unless it says otherwise.
UniProt Q8N568: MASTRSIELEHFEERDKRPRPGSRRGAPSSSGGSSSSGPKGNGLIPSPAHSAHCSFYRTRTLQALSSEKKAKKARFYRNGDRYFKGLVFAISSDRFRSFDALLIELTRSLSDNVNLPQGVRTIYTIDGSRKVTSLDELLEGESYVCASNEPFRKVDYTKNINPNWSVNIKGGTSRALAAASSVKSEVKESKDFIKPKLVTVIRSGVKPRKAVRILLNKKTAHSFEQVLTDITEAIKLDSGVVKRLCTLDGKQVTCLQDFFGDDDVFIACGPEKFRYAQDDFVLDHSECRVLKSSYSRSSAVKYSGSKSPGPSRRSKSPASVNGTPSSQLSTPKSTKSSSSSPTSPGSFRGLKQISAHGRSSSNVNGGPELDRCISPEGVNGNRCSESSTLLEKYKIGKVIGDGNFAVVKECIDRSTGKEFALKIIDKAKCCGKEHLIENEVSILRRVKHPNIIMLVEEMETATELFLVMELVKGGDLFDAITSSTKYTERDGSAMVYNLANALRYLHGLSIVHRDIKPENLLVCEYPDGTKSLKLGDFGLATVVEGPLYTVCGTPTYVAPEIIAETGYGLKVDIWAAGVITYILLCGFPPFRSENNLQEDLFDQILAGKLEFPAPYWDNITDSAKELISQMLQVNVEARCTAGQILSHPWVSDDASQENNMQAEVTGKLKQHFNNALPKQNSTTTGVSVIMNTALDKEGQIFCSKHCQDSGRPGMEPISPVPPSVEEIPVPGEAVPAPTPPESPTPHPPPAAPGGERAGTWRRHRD
UniProt Q96PN8: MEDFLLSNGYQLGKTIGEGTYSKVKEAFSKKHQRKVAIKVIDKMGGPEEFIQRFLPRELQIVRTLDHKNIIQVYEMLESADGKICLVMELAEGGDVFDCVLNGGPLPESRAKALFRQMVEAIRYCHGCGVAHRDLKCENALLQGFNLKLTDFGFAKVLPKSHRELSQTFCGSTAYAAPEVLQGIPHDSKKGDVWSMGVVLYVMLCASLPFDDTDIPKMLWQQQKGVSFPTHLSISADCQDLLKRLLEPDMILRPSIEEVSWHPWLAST
UniProt Q9HCP0: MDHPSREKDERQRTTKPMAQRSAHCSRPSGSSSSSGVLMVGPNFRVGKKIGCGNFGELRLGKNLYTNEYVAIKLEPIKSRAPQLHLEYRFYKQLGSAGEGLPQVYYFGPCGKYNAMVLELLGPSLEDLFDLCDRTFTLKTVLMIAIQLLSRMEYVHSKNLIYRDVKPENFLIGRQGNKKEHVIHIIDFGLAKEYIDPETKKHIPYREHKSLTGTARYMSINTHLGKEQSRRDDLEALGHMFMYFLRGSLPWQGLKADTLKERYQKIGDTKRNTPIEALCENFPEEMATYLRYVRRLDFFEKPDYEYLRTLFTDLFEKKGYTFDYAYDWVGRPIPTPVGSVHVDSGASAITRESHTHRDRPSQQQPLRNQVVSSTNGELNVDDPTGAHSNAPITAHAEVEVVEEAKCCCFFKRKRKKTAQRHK
UniProt P51812, whole entry: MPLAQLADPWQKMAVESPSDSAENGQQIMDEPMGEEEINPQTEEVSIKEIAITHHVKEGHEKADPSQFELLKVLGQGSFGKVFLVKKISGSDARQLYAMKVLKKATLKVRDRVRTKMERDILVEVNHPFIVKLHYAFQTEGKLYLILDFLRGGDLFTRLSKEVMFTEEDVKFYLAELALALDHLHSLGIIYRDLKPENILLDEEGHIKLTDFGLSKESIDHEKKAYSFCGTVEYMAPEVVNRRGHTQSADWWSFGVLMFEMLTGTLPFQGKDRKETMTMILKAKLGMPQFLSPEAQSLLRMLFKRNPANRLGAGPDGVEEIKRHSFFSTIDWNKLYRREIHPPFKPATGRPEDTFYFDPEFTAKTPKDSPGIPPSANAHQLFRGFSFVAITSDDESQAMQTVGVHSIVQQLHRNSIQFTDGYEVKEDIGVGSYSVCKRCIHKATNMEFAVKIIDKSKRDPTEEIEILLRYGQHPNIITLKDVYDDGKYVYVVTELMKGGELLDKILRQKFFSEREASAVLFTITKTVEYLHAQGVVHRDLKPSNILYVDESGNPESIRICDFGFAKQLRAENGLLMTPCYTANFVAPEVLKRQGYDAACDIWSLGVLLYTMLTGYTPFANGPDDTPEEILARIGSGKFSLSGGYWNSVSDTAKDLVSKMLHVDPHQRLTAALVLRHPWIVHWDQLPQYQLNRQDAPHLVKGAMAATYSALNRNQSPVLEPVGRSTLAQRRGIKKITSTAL
UniProt Q14164: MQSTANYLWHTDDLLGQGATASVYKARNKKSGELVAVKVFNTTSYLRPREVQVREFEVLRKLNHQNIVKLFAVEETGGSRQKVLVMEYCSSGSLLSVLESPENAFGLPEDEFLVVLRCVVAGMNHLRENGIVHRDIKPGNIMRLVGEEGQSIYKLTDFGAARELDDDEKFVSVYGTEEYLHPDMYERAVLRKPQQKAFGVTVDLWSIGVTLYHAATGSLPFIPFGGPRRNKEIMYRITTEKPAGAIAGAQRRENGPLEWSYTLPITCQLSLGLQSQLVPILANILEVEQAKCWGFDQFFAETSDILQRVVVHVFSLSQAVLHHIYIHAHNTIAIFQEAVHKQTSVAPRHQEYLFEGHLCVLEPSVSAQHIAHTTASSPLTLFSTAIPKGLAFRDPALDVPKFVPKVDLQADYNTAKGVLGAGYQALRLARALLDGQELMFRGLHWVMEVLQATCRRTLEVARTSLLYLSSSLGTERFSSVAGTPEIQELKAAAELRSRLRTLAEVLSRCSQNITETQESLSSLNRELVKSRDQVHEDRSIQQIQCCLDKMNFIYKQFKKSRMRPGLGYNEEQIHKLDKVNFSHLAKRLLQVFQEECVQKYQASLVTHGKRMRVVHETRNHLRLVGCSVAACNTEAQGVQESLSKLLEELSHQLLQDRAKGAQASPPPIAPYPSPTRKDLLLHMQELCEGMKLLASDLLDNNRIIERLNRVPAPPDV
UniProt O96017, whole entry: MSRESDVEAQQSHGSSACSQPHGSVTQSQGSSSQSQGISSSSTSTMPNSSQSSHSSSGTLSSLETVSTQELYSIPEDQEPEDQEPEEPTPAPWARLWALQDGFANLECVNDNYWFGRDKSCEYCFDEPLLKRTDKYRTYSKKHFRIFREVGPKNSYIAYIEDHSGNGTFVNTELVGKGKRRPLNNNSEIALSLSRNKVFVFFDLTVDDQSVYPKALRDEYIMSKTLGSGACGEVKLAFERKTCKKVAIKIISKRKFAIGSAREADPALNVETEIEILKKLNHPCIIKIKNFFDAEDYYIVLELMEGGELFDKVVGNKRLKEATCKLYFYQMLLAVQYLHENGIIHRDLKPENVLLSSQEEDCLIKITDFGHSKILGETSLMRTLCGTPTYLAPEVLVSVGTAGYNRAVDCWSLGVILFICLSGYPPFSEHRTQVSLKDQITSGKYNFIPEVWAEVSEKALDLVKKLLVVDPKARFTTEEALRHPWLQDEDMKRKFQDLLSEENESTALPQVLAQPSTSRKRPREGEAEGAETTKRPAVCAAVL
UniProt P11802: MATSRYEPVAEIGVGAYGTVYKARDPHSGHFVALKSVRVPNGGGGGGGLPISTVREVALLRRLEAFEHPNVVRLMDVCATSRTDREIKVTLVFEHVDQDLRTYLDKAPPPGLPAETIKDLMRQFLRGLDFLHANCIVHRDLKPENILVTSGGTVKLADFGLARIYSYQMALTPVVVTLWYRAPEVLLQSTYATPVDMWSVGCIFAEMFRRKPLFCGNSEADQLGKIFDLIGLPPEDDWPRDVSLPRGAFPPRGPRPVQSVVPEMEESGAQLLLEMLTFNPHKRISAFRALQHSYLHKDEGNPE
UniProt P54764, whole entry: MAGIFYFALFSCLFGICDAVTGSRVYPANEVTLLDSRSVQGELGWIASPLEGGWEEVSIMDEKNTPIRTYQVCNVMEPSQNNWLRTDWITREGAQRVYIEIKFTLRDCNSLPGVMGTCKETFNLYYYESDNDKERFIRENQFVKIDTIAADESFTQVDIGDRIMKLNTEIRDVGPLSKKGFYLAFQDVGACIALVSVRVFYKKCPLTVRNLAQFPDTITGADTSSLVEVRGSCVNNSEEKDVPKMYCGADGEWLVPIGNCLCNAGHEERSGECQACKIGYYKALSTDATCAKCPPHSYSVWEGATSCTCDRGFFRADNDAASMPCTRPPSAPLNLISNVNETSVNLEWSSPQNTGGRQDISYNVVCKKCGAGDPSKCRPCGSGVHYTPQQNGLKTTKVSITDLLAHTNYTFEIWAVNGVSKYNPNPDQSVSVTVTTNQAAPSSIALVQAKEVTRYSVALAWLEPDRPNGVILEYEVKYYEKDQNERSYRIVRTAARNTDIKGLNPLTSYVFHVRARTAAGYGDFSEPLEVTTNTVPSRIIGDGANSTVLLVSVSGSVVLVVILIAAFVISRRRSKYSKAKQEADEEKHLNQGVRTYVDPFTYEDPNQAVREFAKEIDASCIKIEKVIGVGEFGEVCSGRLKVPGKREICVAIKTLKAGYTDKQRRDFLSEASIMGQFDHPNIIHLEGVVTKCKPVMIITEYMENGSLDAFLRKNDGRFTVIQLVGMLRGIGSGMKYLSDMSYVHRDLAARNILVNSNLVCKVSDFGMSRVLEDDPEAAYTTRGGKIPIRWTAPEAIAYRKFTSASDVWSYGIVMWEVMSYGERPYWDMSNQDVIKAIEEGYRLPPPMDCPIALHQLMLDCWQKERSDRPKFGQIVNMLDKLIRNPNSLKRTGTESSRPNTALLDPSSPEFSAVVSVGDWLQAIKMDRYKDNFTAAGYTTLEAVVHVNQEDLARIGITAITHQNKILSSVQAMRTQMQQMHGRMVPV
UniProt Q07912: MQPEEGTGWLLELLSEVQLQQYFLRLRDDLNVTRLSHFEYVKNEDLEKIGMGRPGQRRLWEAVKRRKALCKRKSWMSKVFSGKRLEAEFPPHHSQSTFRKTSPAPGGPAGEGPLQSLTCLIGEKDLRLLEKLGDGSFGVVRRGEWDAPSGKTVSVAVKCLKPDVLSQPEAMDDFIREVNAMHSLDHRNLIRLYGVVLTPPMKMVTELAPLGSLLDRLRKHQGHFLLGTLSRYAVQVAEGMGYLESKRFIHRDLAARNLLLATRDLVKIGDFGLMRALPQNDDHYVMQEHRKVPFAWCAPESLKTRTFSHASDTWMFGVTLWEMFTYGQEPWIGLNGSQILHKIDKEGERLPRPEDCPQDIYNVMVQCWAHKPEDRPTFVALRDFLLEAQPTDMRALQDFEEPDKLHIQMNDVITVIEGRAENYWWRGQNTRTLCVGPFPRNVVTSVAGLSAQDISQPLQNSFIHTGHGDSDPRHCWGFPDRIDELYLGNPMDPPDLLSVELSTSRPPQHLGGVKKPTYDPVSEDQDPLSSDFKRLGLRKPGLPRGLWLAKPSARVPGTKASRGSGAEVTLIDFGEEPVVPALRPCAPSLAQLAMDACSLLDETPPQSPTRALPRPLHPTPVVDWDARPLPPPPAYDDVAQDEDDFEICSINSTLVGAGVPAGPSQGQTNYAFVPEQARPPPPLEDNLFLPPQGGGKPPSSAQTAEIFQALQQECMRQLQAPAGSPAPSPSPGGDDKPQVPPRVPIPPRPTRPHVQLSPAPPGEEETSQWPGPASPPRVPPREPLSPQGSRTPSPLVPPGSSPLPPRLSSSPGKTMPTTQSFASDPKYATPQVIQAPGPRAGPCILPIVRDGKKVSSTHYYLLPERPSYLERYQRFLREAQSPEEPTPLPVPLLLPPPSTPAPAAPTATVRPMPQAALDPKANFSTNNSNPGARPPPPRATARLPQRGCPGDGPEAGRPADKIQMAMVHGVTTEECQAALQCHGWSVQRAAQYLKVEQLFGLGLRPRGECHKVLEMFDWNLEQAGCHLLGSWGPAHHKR

Legend:
PKCa = biological target: T1, PKCa (Homo sapiens, UniProt P17252); test: biochemical; conditions: read-out: % remaining activity
T1 construct: gene PRKCA

PLK3 = PLK3 (Homo sapiens, UniProt Q9H4B4); test: biochemical; conditions: read-out: % remaining activity
DCAMKL2 = biological target: T2, DCAMKL2 (Homo sapiens, UniProt Q8N568); test: biochemical; conditions: read-out: % remaining activity
T2 construct: gene DCLK2

TSSK3 = TSSK3 (Homo sapiens, UniProt Q96PN8); test: biochemical; conditions: read-out: % remaining activity
ULK2 = ULK2 (Homo sapiens, UniProt Q8IYT8); test: biochemical; conditions: read-out: % remaining activity
ARG = biological target: T3, ARG (Homo sapiens, UniProt P42684); test: biochemical; conditions: read-out: % remaining activity
T3 construct: gene ABL2

CK1g1 = biological target: T4, CK1g1 (Homo sapiens, UniProt Q9HCP0); test: biochemical; conditions: read-out: % remaining activity
T4 construct: gene CSNK1G1

RSK2 = biological target: T5, RSK2 (Homo sapiens, UniProt P51812); test: biochemical; conditions: read-out: % remaining activity
T5 construct: gene RPS6KA3

Haspin = Haspin (Homo sapiens, UniProt Q8TF76); test: biochemical; conditions: read-out: % remaining activity
IKKe = biological target: T6, IKKe (Homo sapiens, UniProt Q14164); test: biochemical; conditions: read-out: % remaining activity
T6 construct: gene IKBKE

CHK2 = biological target: T7, CHK2 (Homo sapiens, UniProt O96017); test: biochemical; conditions: read-out: % remaining activity
T7 construct: gene CHEK2

ERK2 = biological target: T8, ERK2 (Homo sapiens, UniProt P28482); test: biochemical; conditions: read-out: % remaining activity
T8 construct: gene MAPK1

CAMK2g = CAMK2g (Homo sapiens, UniProt Q13555); test: biochemical; conditions: read-out: % remaining activity
CDK4/cyclin D1 = CDK4/cyclin D1 (Homo sapiens, UniProt P11802); test: biochemical; conditions: read-out: % remaining activity
EPHA4 = EPHA4 (Homo sapiens, UniProt P54764); test: biochemical; conditions: read-out: % remaining activity
ACK1 = biological target: T9, ACK1 (Homo sapiens, UniProt Q07912); test: biochemical; conditions: read-out: % remaining activity
T9 construct: gene TNK2

SUM44PE = test: cells; conditions: 120 h, read-out: eCF506 GI50 (in uM)
MDA-MB-436 = test: cells; conditions: Homo sapiens, MDA-MB-436, 120 h, read-out: eCF506 GI50 (in uM)
BT-549 = test: cells; conditions: Homo sapiens, BT-549, 120 h, read-out: eCF506 GI50 (in uM)
KPL-4 = test: cells; conditions: KPL4, 120 h, read-out: eCF506 GI50 (in uM)
CAMA-1 = test: cells; conditions: Homo sapiens, CAMA-1, 120 h, read-out: eCF506 GI50 (in uM)
HCC-1569 = test: cells; conditions: Homo sapiens, HCC1569, 120 h, read-out: eCF506 GI50 (in uM)
MDA-MB-231 = test: cells; conditions: Homo sapiens, MDA-MB-231, 120 h, read-out: eCF506 GI50 (in uM)
HCC-1954 = test: cells; conditions: Homo sapiens, HCC1954, 120 h, read-out: eCF506 GI50 (in uM)
T-47D = test: cells; conditions: Homo sapiens, T47D, 120 h, read-out: eCF506 GI50 (in uM)
BT-474 = test: cells; conditions: Homo sapiens, BT-474, 120 h, read-out: eCF506 GI50 (in uM)
ZR75.1 = test: cells; conditions: Homo sapiens, ZR-75-1, 120 h, read-out: eCF506 GI50 (in uM)
MCF-7 = test: cells; conditions: Homo sapiens, MCF7, 120 h, read-out: eCF506 GI50 (in uM)
SKBR-3 = test: cells; conditions: Homo sapiens, SK-BR-3, 120 h, read-out: eCF506 GI50 (in uM)
MDA-MB-157 = test: cells; conditions: Homo sapiens, MDA-MB-157, 120 h, read-out: eCF506 GI50 (in uM)
JIMT-1 = test: cells; conditions: Homo sapiens, JIMT-1, 120 h, read-out: eCF506 GI50 (in uM)
SRC = SRC (Homo sapiens, UniProt P12931); test: biochemical

How did the remaining activity at 1 µM (PKCa) turn out when `COc1cc(-c2nn(CCN3CCC(N(C)C)CC3)c3ncnc(N)c23)ccc1NC(=O)OC(C)(C)C` [eCF506] was run?
Its remaining activity at 1 µM is 99.9%.

And the remaining activity at 1 µM (PLK3)?
The remaining activity at 1 µM was 105%.

And the remaining activity at 1 µM (DCAMKL2)?
Its remaining activity at 1 µM is 102%.

What about the remaining activity at 1 µM (TSSK3) of the same compound?
The remaining activity at 1 µM was 112%.

What about the remaining activity at 1 µM (ULK2) of the same compound?
The remaining activity at 1 µM was 104%.

What about the remaining activity at 1 µM (ARG) of the same compound?
The remaining activity at 1 µM was 28.7%.

What about the remaining activity at 1 µM (CK1g1) of the same compound?
The remaining activity at 1 µM was 99.2%.

What about the remaining activity at 1 µM (RSK2) of the same compound?
The remaining activity at 1 µM was 97.1%.

What about the remaining activity at 1 µM (Haspin) of the same compound?
Its remaining activity at 1 µM is 105%.

What about the remaining activity at 1 µM (IKKe) of the same compound?
Its remaining activity at 1 µM is 93.8%.

What about the remaining activity at 1 µM (CHK2) of the same compound?
The remaining activity at 1 µM was 98.9%.

What about the remaining activity at 1 µM (ERK2) of the same compound?
The remaining activity at 1 µM was 99.5%.

And the remaining activity at 1 µM (CAMK2g)?
Its remaining activity at 1 µM is 102%.

What about the remaining activity at 1 µM (CDK4/cyclin D1) of the same compound?
Its remaining activity at 1 µM is 104%.

And the remaining activity at 1 µM (EPHA4)?
Its remaining activity at 1 µM is 106%.

And the remaining activity at 1 µM (ACK1)?
Its remaining activity at 1 µM is 54.3%.

And the GI50 (SUM44PE)?
The GI50 was 50.8 µM.

What about the GI50 (MDA-MB-436) of the same compound?
The GI50 was 27 µM.

What about the GI50 (BT-549) of the same compound?
The GI50 was 0.155 µM.

And the GI50 (KPL-4)?
The GI50 was 12.8 µM.

And the GI50 (CAMA-1)?
The GI50 was 8.75 µM.

What about the GI50 (HCC-1569) of the same compound?
The GI50 was 3.59 µM.

And the GI50 (MDA-MB-231)?
Its GI50 is 0.016 µM.

And the GI50 (HCC-1954)?
Its GI50 is 1.79 µM.

What about the GI50 (T-47D) of the same compound?
Its GI50 is 0.149 µM.

What about the GI50 (BT-474) of the same compound?
The GI50 was 2.99 µM.

What about the GI50 (ZR75.1) of the same compound?
The GI50 was 0.0218 µM.

And the GI50 (MCF-7)?
The GI50 was 0.0147 µM.

What about the GI50 (SKBR-3) of the same compound?
The GI50 was 7.8 µM.

What about the GI50 (MDA-MB-157) of the same compound?
The GI50 was 0.02 µM.

And the GI50 (JIMT-1)?
Its GI50 is 0.222 µM.

And the IC50 (SRC)?
The IC50 was less than 0.5 nM.
